Columns and labels:
[1] = system: MKN-45 (EGFR-low, cMET-amplified); experiment: ADCC Bioassay (Promega), MKN-45 target cells; format: cell-based; conditions: 10 μg/ml to 1 ng/ml, 6 hours
Protocol: (§1) The ADCC activity of the 24 cMetxEGFR bispecifics was tested to the tumor cell lines N87 (EGFR-high, cMET-low) and MKN-45 (EGFR-low, cMET-amplified). The ADCC assay was performed using the Promega ADCC Bioassay kit in 384-well plate format. Antibodies were tested in duplicate at 9 different concentrations in semi-log serial dilutions ranging from 10 μg/ml to 1 ng/ml.
(§2) Antibodies or assay medium control (no IgG) were incubated for 6 hours of induction at 37° C. with ADCC effector cells, and target cells (N87 or MKN-45). Luciferase activity was quantified using Bio-Glo luciferase reagent.

[2] = system: N87 (EGFR-high, cMET-low); experiment: ADCC Bioassay (Promega), N87 target cells; format: cell-based; conditions: 10 μg/ml to 1 ng/ml, 6 hours
Protocol: as §1, §2

“cetuximab: reference anti-EGFR monoclonal antibody” was tested, and the ADCC activity [1] was “dose-dependent ADCC activity” and the ADCC activity [2] was “dose-dependent ADCC activity”.

Reference: patent US12668638B2, “Antibodies that bind EGFR and cMET” (Merus B.V., priority 2017, dated 2026)
